The numbers were not newly measured in patent EP3389676B1, “DOSAGE REGIMEN OF SODIUM SELENITE IN THE TREATMENT OF CANCER” (Pharma Nord ApS, priority 2015, dated 2017), which cites them from elsewhere.

The test system of this series is mice bearing a human carcinoma. The note with it: in combination with chemotherapeutic agents; Cao et al. 2004; cited from earlier work.

With `[Se]` [selenium], the “safe and nontoxic dose and schedule” value was “below 0.2 mg/mouse/day”.
